Experimental data published in patent US20110033906A1 (priority 2009, published 2011).

Test system: yeast (MT 8-1)
Conditions: ionic liquid concentration up to 200 mM

1-ethyl-3-methylimidazolium diethylphosphate [[Emim][DEP]]
yeast survivability (live cell counts): not greatly affected
